# Assay results taken from US20040197859A1, “Isolated dna molecules encoding humanized calcitonin gene-related peptide receptor, related non-human transgenic animals and assay methods” (priority 2001, published 2004).
# Amino acid sequences for entries named in this document (tags omitted). Residues count along the entry.
# UniProt Q9R1W5, 23-463 limits assumed: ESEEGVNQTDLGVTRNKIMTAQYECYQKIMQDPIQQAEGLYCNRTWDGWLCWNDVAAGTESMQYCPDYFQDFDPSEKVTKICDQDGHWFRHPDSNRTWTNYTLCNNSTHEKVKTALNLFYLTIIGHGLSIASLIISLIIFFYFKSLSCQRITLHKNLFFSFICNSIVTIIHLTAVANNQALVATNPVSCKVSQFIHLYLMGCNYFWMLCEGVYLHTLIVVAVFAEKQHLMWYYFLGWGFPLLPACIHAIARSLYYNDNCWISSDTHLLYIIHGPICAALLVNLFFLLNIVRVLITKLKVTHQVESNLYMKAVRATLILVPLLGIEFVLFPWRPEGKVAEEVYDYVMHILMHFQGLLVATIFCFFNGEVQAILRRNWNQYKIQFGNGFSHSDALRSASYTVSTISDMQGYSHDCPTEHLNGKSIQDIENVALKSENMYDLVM
# UniProt Q9WTJ5, 27-148 K74W limits assumed: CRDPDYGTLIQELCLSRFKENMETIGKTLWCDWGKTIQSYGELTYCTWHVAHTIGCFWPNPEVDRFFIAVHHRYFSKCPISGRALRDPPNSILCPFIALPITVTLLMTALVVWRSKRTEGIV
# UniProt Q9WTJ5, 27-148 limits assumed: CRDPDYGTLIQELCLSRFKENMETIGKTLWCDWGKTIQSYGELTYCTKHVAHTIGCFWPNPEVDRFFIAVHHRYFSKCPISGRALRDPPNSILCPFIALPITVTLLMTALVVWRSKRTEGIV
# Assays:
# rCRLR/hRAMP1 = rCRLR/hRAMP1 (UniProt O60894+Q63118); assay: competitive 125I-hCGRP binding, membranes expressing hybrid rCRLR/hRAMP1; conditions: Table 4
# rCRLR/Chimera 2 = assay: competitive 125I-hCGRP binding, membranes expressing rCRLR with RAMP1 Chimera 2; parameters: species or system rat CRLR, human/rat chimeric RAMP1; conditions: Table 5; rCRLR/Chimera 2 (first 112 aa of rRAMP1 replaced with human)
# hCRLR/rRAMP1 = hCRLR/rRAMP1 (UniProt Q16602+Q9JJ74); assay: competitive 125I-hCGRP binding, membranes expressing hybrid hCRLR/rRAMP1; parameters: species or system human CRLR, rat RAMP1; conditions: Table 4
# [1] = biological target: mCRLR/mRAMP1 (native mouse receptor) (Mus musculus, UniProt Q9R1W5+Q9WTJ5); assay: competitive binding, membranes expressing mCRLR/mRAMP1; conditions: Table 7
# rCRLR/rK74W RAMP1 = rCRLR/rK74W RAMP1 (Rattus norvegicus, UniProt Q63118+Q9JJ74, K74W); assay: competitive 125I-hCGRP binding, membranes expressing rCRLR and mutant rK74W RAMP1
# Procedure: Rat RAMP1 site-directed mutagenesis was performed by using the Quick Change Site-directed Mutagenesis Kit (Stratagene) according to the manufacturer's instructions. […] of rRAMP1 was replaced with the corresponding human/marmoset amino acid tryptophan utilizing two complementary mutant oligonucleotide primers ([NT] ID NO:27] and [NT] ID NO:28]) and the rRAMP1 expression vector construct as template. This mutation was accomplished by substituting the codon TGG corresponding to tryptophan (r[…] RAMP1). All constructs were sequenced bidirectionally with 100% coverage in each direction. Cell Culture and DNA Transfection-293 EBNA cells were cultured in DMEM with 4.5 g/L glucose, 1 mM sodium pyruvate and 2 mM glutamine supplemented with 10% Fetal Bovine Serum (FBS), 100 units/mL penicillin and 100 μg/mL streptomycin, and maintained at 37° C. and 95% humidity. Cells were subcultured by treatment with 0.25% trypsin with 0.1% EDTA in HBSS. Twenty-four hours prior to transfection, the cells were seeded at 2.0×10^7/dish in 500 cm^2 dishes. The following day, the cells were re-fed with fresh growth medium 1 hour before transfection. Transfections were performed by combining 60 μg/dish DNA with 180 μg/dish Lipofectamine 2000 (Life Technologies). cDNA's for CRLR and RAMP1 in the mammalian expression vector pcDNA3.1 were co-transfected in equal amounts. […] Data were analyzed by using GraphPad Prism. […]
# [2] = biological target: rCRLR/rRAMP1 (native rat CGRP receptor) (Rattus norvegicus, UniProt Q63118+Q9JJ74); assay: competitive 125I-hCGRP binding, membranes expressing rCRLR/rRAMP1
# rCRLR/Chimera 1 = rCRLR/Chimera 1 (Rattus norvegicus, UniProt Q63118+Q9JJ74, D29E/D31N/E46V/G64R/I36L/I51V/K45Q/K53E/K61R/P30A/Q37R/R28Q/R43Q/S42T/T34A/T50A/V24T); assay: competitive 125I-hCGRP binding, membranes expressing rCRLR with RAMP1 Chimera 1; parameters: species or system rat CRLR, human/rat chimeric RAMP1; conditions: Table 5; rCRLR/Chimera 1 (first 66 aa of rRAMP1 replaced with human)
# From the text: Two human/rat chimeric RAMP1 cDNAs were constructed by using restriction fragments of the corresponding native cDNAs. Chimera 1 was created by replacing the nucleotides coding for the first 66 amino acids of rRAMP1 with the corresponding nucleotides of hRAMP1 by using the BsgI restriction site along with a NheI site located in the cloning vector. Chimera 2 was created by replacing the nucleotides coding for the first 112 amino acids of rRAMP1 with the corresponding nucleotides of hRAMP1 by using the SanDI restriction site along with a NheI site located in the cloning vector. Cell Culture and DNA Transfection-293 EBNA cells were cultured in DMEM with 4.5 g/L glucose, 1 mM sodium pyruvate and 2 mM glutamine supplemented with 10% Fetal Bovine Serum (FBS), 100 units/mL penicillin and 100 μg/mL streptomycin, and maintained at 37° C. and 95% humidity. Cells were subcultured by treatment with 0.25% trypsin with 0.1% EDTA in HBSS. Twenty-four hours prior to transfection, the cells were seeded at 2.0×10^7/dish in 500 cm^2 dishes. The following day, the cells were re-fed with fresh growth medium 1 hour before transfection. Transfections were performed by combining 60 μg/dish DNA with 180 μg/dish Lipofectamine 2000 (Life Technologies). cDNA's for CRLR and RAMP1 in the mammalian expression vector pcDNA3.1 were co-transfected in equal amounts. […] Data were analyzed by using GraphPad Prism. […]
# mCRLR/mK74W RAMP1 = mCRLR/mK74W RAMP1 (Mus musculus, UniProt Q9R1W5+Q9WTJ5, K74W); assay: competitive binding, membranes expressing mCRLR and mutant mK74W RAMP1
# [3] = biological target: hCRLR/hRAMP1 (human CGRP receptor) (Homo sapiens, UniProt O60894+Q16602); assay: competitive 125I-hCGRP binding, membranes of 293 EBNA cells expressing hCRLR/hRAMP1
smiles,measurement,setting,value
O=C(NC(Cc1cc(Br)c(O)c(Br)c1)C(=O)N1CCN(c2ccccc2)CC1)N1CCC(n2c(=O)[nH]c3ccccc32)CC1 (stereo not drawn),IC50,rCRLR/hRAMP1,190 nM
same,IC50,rCRLR/Chimera 2,150 nM
same,IC50,hCRLR/rRAMP1,24000 nM
same,IC50,[1],> 20000 nM
same,IC50,"rCRLR/rK74W RAMP1; Table 6, rCRLR/rK74W RAMP1",19 nM
same,higher affinity for the rCRLR/rK74W RAMP1 receptor than for the native human receptor,rCRLR/rK74W RAMP1; rCRLR/rK74W RAMP1 vs hCRLR/hRAMP1,> 10 fold
same,IC50,[2]; Table 4,15000 nM
same,IC50,[2]; Table 6,20000 nM
same,IC50,rCRLR/Chimera 1,9000 nM
same,IC50,"mCRLR/mK74W RAMP1; Table 7, mCRLR/mK74W RAMP1",13 nM
same,higher affinity for the mCRLR/mK74W RAMP1 receptor than for the native human receptor,mCRLR/mK74W RAMP1; mCRLR/mK74W RAMP1 vs hCRLR/hRAMP1,> 10 fold
same,IC50,"[3]; Table 4, hCRLR/hRAMP1, transient 293 EBNA membranes",150 nM
same,IC50,"[3]; Table 5, hCRLR/hRAMP1",150 nM
same,IC50,"[3]; Table 6, hCRLR/hRAMP1",270 nM
same,IC50,"[3]; Table 7, hCRLR/hRAMP1",150 nM
